# Antibody variant affinities, Ab-14 heavy chain, assay 1

All variants were tested on one target, the spike HR2 peptide PDVDLGDISGINAS (SARS-CoV-2).

The variants keep the light chain, the linker and the frameworks of Ab-14 (scFv order VH, a 15-residue (Gly4Ser)3 linker, VL).
VH: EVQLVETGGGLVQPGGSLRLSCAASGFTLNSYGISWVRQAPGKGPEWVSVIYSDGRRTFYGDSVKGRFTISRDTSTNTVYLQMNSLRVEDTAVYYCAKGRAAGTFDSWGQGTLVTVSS
VL: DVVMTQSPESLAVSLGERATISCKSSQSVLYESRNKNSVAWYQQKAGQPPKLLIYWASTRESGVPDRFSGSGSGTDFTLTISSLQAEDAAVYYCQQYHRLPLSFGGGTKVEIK

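The parent was found by panning a naive human phage display library on the peptide. Library AAYL49 holds single substitutions and randomly drawn double and triple substitutions in the CDRs. The assay is AlphaSeq: two haploid yeast populations carry antibody and antigen on their surface. The frequency of each diploid, read from paired DNA barcodes, reflects how well the two displayed proteins bind. Read counts were normalised to the haploid input and turned into Kd by a linear fit to BCL2-family pairs of known affinity, for each replicate. The assay was run in three technical replicates.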

Substitutions are numbered in sequence along the VH above, starting at 1 (not Kabat).
This list gathers variants with a substitution at A101 (VH, numbered from residue 1).
Values are apparent Kd, the geometric mean of the replicates that gave a signal; lower means stronger binding.
An entry "not detected" has no value in the source: the pair was not observed among the diploids in any replicate. This suggests poor binding but is not conclusive.
Background: pairings of library AAYL49 with three empty control strains gave a value in 15% of cases (median 11 µM, 5th percentile 680 nM). Values in that range, when seen in few replicates, are hard to tell from nonspecific mating.

changes,Kd,replicates with signal
S53N K65F A101E,1.1 µM,3/3
T28Y Y52H A101Q,not detected,0/3
I51D S53C A101V,not detected,0/3
L29A V64H A101D,not detected,0/3
F59M R100I A101Y,25 nM,3/3
S35D Y60P A101E,not detected,0/3
V50F A101G,not detected,0/3
Y60N R100Q A101N,200 nM,3/3
F27E G61L A101W,7.2 nM,3/3
L29I I34F A101Y,not detected,0/3
L29T R57F A101D,510 nM,1/3
S35R A101Y T104Y,not detected,0/3
G33S A101K G103M,4.4 µM,1/3
F27V A101E D106A,5.0 µM,2/3
A101N,6.0 nM,3/3
R57D A101W S107W,not detected,0/3
R57L T58I A101N,34 µM,2/3
L29Y R56G A101C,200 µM,2/3
F27V A101V A102G,9.1 nM,3/3
T28D R56N A101P,13 nM,3/3
R56H A101N F105E,110 µM,1/3
I34E V50N A101C,not detected,0/3
Y60M K65S A101V,7.6 nM,3/3
S35G A101F T104M,not detected,0/3
K65C A101V A102G,54 nM,3/3
R57C A101K F105I,not detected,0/3
S53D A101F G103D,not detected,0/3
G61S A101G A102R,13 µM,2/3
F59W K65L A101W,47 nM,3/3
S31W A101H,27 nM,3/3
G61S A101W A102N,47 nM,3/3
V64R G99A A101F,not detected,0/3
S31H R56P A101H,not detected,0/3
Y60K A101K,not detected,0/3
A101G D106G,not detected,0/3
S35N A101C T104D,14 µM,3/3
R56A V64A A101H,2.0 µM,3/3
G26P K65W A101P,56 µM,1/3
Y32Q A101M,45 nM,3/3
D54P R57S A101L,not detected,0/3
Y52D R56K A101S,not detected,0/3
S63D A101S S107W,52 nM,3/3
R57T G61N A101D,19 µM,1/3
V50Q S63H A101V,29 µM,1/3
G33S R100C A101I,not detected,0/3
K65D A101L,17 nM,3/3
R100H A101T A102Q,970 µM,1/3
T58F A101S A102F,280 nM,3/3
S31K S35V A101N,not detected,0/3
D54G A101I T104W,not detected,0/3
L29S V64Y A101R,not detected,0/3
Y32H G61L A101Q,4.6 nM,3/3
S35C R56W A101C,380 nM,1/3
N30S D62N A101H,22 nM,3/3
G61C A101W T104V,800 nM,1/3
G33V A101I S107M,not detected,0/3
V64N A101K,not detected,0/3
S53K G99V A101S,not detected,0/3
F27M Y32K A101Q,3.2 µM,1/3
F27R D62Y A101R,11 µM,1/3
Y32N V64Q A101D,not detected,0/3
S63Y A101W A102N,not detected,0/3
T58C F59E A101Y,31 nM,3/3
I51D V64W A101S,16 µM,1/3
F27L V64R A101S,40 µM,1/3
R100A A101I G103D,not detected,0/3
A101V T104M,15 nM,3/3
I34P A101S,not detected,0/3
S35E Y60R A101W,2.4 µM,1/3
V64A K65N A101G,not detected,0/3
Y52R Y60K A101M,140 µM,2/3
S31F D54P A101F,not detected,0/3
G33M A101M,not detected,0/3
I34S T58C A101G,6.5 µM,1/3
S31V Y32A A101E,not detected,0/3
G33H Y60L A101F,not detected,0/3

Excerpt, the first 11 entries:

changes	Kd	replicates with signal
S53N K65F A101E	1.1 µM	3/3
T28Y Y52H A101Q	not detected	0/3
I51D S53C A101V	not detected	0/3
L29A V64H A101D	not detected	0/3
F59M R100I A101Y	25 nM	3/3
S35D Y60P A101E	not detected	0/3
V50F A101G	not detected	0/3
Y60N R100Q A101N	200 nM	3/3
F27E G61L A101W	7.2 nM	3/3
L29I I34F A101Y	not detected	0/3
L29T R57F A101D	510 nM	1/3

For reference, the parent read 4.4 nM as the reference entry and 13 µM (one replicate of three) as a member of this library.

Source: Engelhart et al. 2022 (doi:10.1038/s41597-022-01779-4), MIT Lincoln Laboratory and A-Alpha Bio; data file from the FLAb repository.